We go through one sequence from ChEMBL document CHEMBL1629585, “Nationwide survey of CTX-M-type extended-spectrum beta-lactamases among Klebsiella pneumoniae isolates in Slovenian hospitals” (2009).

For test [1], the system named is Klebsiella pneumoniae. Description: Antibacterial activity against Klebsiella pneumoniae C expressing CTX-M group 1 beta-lactamase by Etest method. It is filed as functional.
Test [2] relates to Escherichia coli. The following applies: J53-2.

Turning to GENTAMICIN, the MIC in test [1] and in test [2] was 0.5 µg/mL in each case.

As a reminder, the MIC is the least concentration at which growth counts as inhibited.
